From patent US20070117180A1, “Enzyme producing plasma protein fragment having inhibitory activity to metastasis and growth of cancer and plasma protein fragment produced by fragmentation by said enzyme” (priority 1998, published 2007) come the findings set out here.

The assay concerns the target T1, PACE4 (Homo sapiens, UniProt P07339).
T1 construct: The enzyme of the present invention prepared from PC-3 culture supernatant; endogenous in cells; host or cells: PC-3 human prostate cancer cells, serum-free culture supernatant, purified by chromatography
T1 sequence (P07339 21-412): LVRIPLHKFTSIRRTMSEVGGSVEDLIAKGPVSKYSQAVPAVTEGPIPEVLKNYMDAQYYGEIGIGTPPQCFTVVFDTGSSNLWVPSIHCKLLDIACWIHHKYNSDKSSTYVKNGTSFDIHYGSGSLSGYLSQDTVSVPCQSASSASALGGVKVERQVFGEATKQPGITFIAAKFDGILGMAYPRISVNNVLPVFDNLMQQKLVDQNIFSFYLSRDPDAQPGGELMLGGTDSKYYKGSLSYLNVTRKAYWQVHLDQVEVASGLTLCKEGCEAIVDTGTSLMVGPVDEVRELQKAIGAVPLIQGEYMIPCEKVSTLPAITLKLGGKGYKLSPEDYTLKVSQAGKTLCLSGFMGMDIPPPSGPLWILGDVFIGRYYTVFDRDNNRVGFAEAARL
Kind of assay: Inhibition of the purified PACE4 by various protease inhibitors (FIG. 5). The assay is classed as biochemical. Particulars: pepstatin A 1 μM. The protocol: A mode of the inhibitory activity of the enzyme of the present invention is summarized in FIG. 5 wherein a concentration of each inhibitor was: aprotinin (0.3 μM), benzamidine (10 mM), elastinal (100 μM), pepstatin A (1 μM), and EDTA (10 mM). […] FIG. 6 depicts fragmentation patterns of plasminogen when reacted at neutral and acidic ranges of pH. […] In FIG. 6, the arrow A (→A) indicates a band corresponding to angiostatin from PC-3 according to Gately et al. whereas the arrow B (→B) indicates a band corresponding to a fragment comprising Kringles 1 to 4 produced by PACE4. […] The N-terminal amino acid residue of each fragment was analyzed to be F-74 for A, P-452 for B and A-700 for C, respectively.
FIG. 2 schematically illustrates procedures for screening PACE4 wherein anti-Mini Plasminogen antibody is used as an immobilized antibody whereas antibody directed to Kringles 1 to 3 of plasminogen is used as a labeled antibody. A predetermined amount of plasminogen and samples are mixed together and the mixture is added to this system. If plasminogen is cleaved at between Kringle 4 and Mini Plasminogen, a color development will become declined in proportion to a degree of the cleavage. An enzyme level is determined based on a rate of this decline in color development. […]

Each structure is given as a SMILES string.

Turning to `CC(C)CC(=O)N[C@H](C(=O)N[C@H](C(=O)N[C@@H](CC(C)C)[C@@H](O)CC(=O)N[C@@H](C)C(=O)N[C@@H](CC(C)C)[C@@H](O)CC(=O)O)C(C)C)C(C)C` [pepstatin A], the “activity of the enzyme of the present invention in presence of inhibitor” value is “completely inhibited”.
